In US20210393614A1, “QUINONE REDUCTASE 2 INHIBITORS FOR USE AS NEUROPROTECTIVE AGENTS” (DUKE UNIVERSITY, priority 2018, published 2021):

Tested on: intracranial hemorrhagic injury
Experiment: Mouse model of intracranial hemorrhagic injury
Details: in vivo, ip

COc1cc(NC(C)CCCN)c2ncccc2c1 (stereo not shown) [primaquine, reference compound]
worsening in motor function: 35%
